Results on one substance are retold here after patent US20240309051A1, “[…] T (TFH) CELLS […] TO SARS-COV-2 VIRUS” (priority 2021, published 2024).

This experiment has as its system Clone 1/2 (TCR-017 or TCR-018) reconstituted mouse T-cell hybridomas harboring the NFAT-GFP reporter gene. In words: NFAT-GFP reporter T-cell hybridomas reconstituted with clone 1/2 TCRαβ, stimulated with synthesized peptide, GFP or CD69. As to conditions: 1 μg/ml peptide; APC derived from patient Ts-018; 20 hr after stimulation.

As for “SEQ ID NO: 13: amino acid sequence of follicular T cell epitope, essential for activation of clone 1/2 (IAQYTSALL; amino acid sequence of epitope of SARS-CoV-2 for focillar helper T cell)”, the “T cell activation evaluated by the expression of GFP or CD69 (recognition by clone 1/2)” value is “essential for activation”.
